Measured values from PubChem BioAssay AID602274 (Sanford-Burnham Center for Chemical Genomics, 2012).
The list shows a part of the results, in another mix than the full data. Activity calls are given as the source filed them. No stated cut-off is given here; in the data, active means survival enhancement above about 18%; inactive means the rest.

Experiment: compounds raising survival of dissociated human iPSCs – cell-based, ATPlite luminescence, primary screen (AID 602274);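 further: cells exposed to compounds for 16 hours before the ATP read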
Conditions: hiPSC single-cell survival, at 20 µM, active compounds read high, 100% = ROCK inhibitor wells, 0% = DMSO
For `CCC(C)N(CC(C)C)C(=S)SC(NC(C)=O)C(Cl)(Cl)Cl` (stereo not drawn), the survival enhancement was inactive: 0.5%.
For `CCOC(=O)c1ccc(NC(=O)C(C)(CCl)SC)cc1` (stereo not drawn), the survival enhancement was inactive: -0.1%.
For `CSc1ccc(Nc2c([N+](=O)[O-])cc([N+](=O)[O-])cc2[N+](=O)[O-])cc1`, the survival enhancement was inactive: -2%.
With `O=C(OC1CN2CCC1CC2)c1cccc([N+](=O)[O-])c1` (stereo not drawn) the survival enhancement was inactive: -0.4%.
In the case of `O=C(Nc1ccncc1[N+](=O)[O-])c1ccc([N+](=O)[O-])cc1[N+](=O)[O-]`, the survival enhancement was inactive: 0.6%.
With `O=C(COc1ccccc1)OC1CN2CCC1CC2` (stereo not drawn) the survival enhancement was inactive: -1.4%.
For `O=C(O)C(=O)c1ccc(N(CCCl)CCCl)cc1`, the survival enhancement was inactive: 1.1%.
With `COC(=O)C1(C)COP(=O)(N2CCCC2)OC1` (stereo not drawn) the survival enhancement was inactive: 1.6%.
In the case of `COP1(=S)c2c(C)nn(CCC#N)c2N=C(c2ccc(F)cc2)N1C` (stereo not drawn), the survival enhancement was inactive: 5.4%.
In the case of `O=[N+]([O-])c1ccc(Nc2ccc(Oc3ccc([N+](=O)[O-])cc3[N+](=O)[O-])cc2)c([N+](=O)[O-])c1`, the survival enhancement was inactive: 0%.
For `Cc1cc(SC(NC=O)C(Cl)(Cl)Cl)ncn1` (stereo not drawn), the survival enhancement was inactive: 0.5%.
For `O=P(Nc1ccccn1)(c1cccc2ccccc12)c1cccc2ccccc12`, the survival enhancement was inactive: 0.1%.
With `CCOC(=O)Nc1cccc([As](=O)(O)O)c1` the survival enhancement was inactive: -0.3%.
For `Cc1cc(SC(NC(=O)c2ccccc2)C(Cl)(Cl)Cl)nc(C(C)C)n1` (stereo not drawn), the survival enhancement was inactive: -0.6%.
For `COP(=O)(OC)N1CC1c1ccccc1` (stereo not drawn), the survival enhancement was inactive: -2.8%.
With `CC1CCNP(=O)(N(CCCl)CCCl)O1` (stereo not drawn) the survival enhancement was inactive: 1.1%.
With `O=C(O)C(O)c1ccc(N(CCCl)CCCl)cc1` (stereo not drawn) the survival enhancement was inactive: 3%.
With `CCOC(=O)Nc1ccc([As](=O)(O)O)c(O)c1` the survival enhancement was inactive: -0.1%.
With `O=[N+]([O-])c1cc([N+](=O)[O-])c(-c2ccn[nH]2)s1` the survival enhancement was inactive: -1.4%.
With `CC(C)NC(=O)NP(=O)(Oc1ccccc1)Oc1ccccc1` the survival enhancement was inactive: -0.2%.
For `CCN(CC)C(=S)SC(NC=O)C(Cl)(Cl)Cl` (stereo not drawn), the survival enhancement was inactive: 0.5%.
In the case of `O=C(OC1CN2CCC1CC2)c1cccc2[nH]cnc12` (stereo not drawn), the survival enhancement was inactive: -0.2%.
For `COC(=O)C1(C)COP(=O)(N2CCCCCC2)OC1` (stereo not drawn), the survival enhancement was inactive: 0.6%.
With `CC(C)c1ccc(OP(=O)(Nc2ccccn2)Oc2ccccc2F)cc1` (stereo not drawn) the survival enhancement was inactive: -0.5%.
In the case of `ClCCSc1nnc(-c2cccnc2)o1`, the survival enhancement was inactive: 8.5%.
For `Cc1ccc2nc3c(c(C)c2c1)CC(C(Cl)Cl)S3` (stereo not drawn), the survival enhancement was inactive: 1.7%.
With `Cc1ccc(OP(=O)(Nc2ccc([N+](=O)[O-])cn2)Oc2ccc(C)cc2)cc1` the survival enhancement was inactive: -0.2%.
In the case of `[N-]=[N+]=NC1CCCCC1NC(=O)c1cc([N+](=O)[O-])cc([N+](=O)[O-])c1` (stereo not drawn), the survival enhancement was inactive: 0.2%.
In the case of `O=[N+]([O-])c1ccc(-c2cc([N+](=O)[O-])c(O)c([N+](=O)[O-])c2)cc1`, the survival enhancement was inactive: 2.4%.
For `C[As](=O)(O)c1cccc(C(=O)O)c1`, the survival enhancement was inactive: 0.1%.
In the case of `O=[As](O)(c1ccc(O)cc1)c1ccccc1O`, the survival enhancement was inactive: -0.4%.
With `COc1ccc(N/C(=N/P(=O)(N2CCOCC2)N2CCOCC2)N2CCOCC2)cc1` the survival enhancement was inactive: -0.3%.
For `O=[N+]([O-])c1cc(Oc2ccc([N+](=O)[O-])cc2C(F)(F)F)cc([N+](=O)[O-])c1`, the survival enhancement was inactive: -0.9%.
For `COc1cc(I)ccc1[As](=O)(O)O`, the survival enhancement was inactive: 1%.
For `COc1ccc2nc(NP(=O)(c3ccccc3)c3ccccc3)sc2c1`, the survival enhancement was inactive: -0.2%.
In the case of `O=P1(N(CCCl)CCCl)Nc2ccccc2N1`, the survival enhancement was inactive: 2.1%.
For `O=P1(N(CCCl)CCCl)OCCCN1CCCl` (stereo not drawn), the survival enhancement was inactive: 1.7%.
In the case of `Cc1cc(=O)[nH]c(N[N+](=O)[O-])n1`, the survival enhancement was inactive: -1%.
With `O=C(OC1CN2CCC1CC2)C12CC3CC(CC(C3)C1)C2` (stereo not drawn) the survival enhancement was inactive: -1.5%.
For `Cc1c2c(nc3ccccc13)SC(C(Cl)Cl)C2` (stereo not drawn), the survival enhancement was inactive: -2%.
In the case of `CCOP(=O)(Nc1cccc2ccccc12)OCC`, the survival enhancement was inactive: -2%.
With `COc1cc(C2NCCC3(OCCO3)C2(C)C)cc(OC)c1OC` (stereo not drawn) the survival enhancement was inactive: -0.4%.
With `CCCOP(=S)(Nc1nc(N)cc(=O)[nH]1)OCCC` the survival enhancement was inactive: 0.8%.
In the case of `Cc1ccc(NCCc2c([N+](=O)[O-])cc([N+](=O)[O-])cc2[N+](=O)[O-])cc1`, the survival enhancement was inactive: -0.7%.
With `Nc1cccc2c([As](=O)(O)O)cccc12` the survival enhancement was inactive: 0.5%.
In the case of `Cc1cccc(OCC(=O)OC2CN3CCC2CC3)c1` (stereo not drawn), the survival enhancement was inactive: -0.4%.
For `O=[As](O)(c1cccc(O)c1)c1cccc(O)c1`, the survival enhancement was inactive: -0.5%.
In the case of `CS(=O)(=O)c1ccc(Cl)c(NC(=O)COC(=O)C(O)(c2ccccc2)c2ccccc2)c1`, the survival enhancement was inactive: -0.5%.
With `O=[As](O)(O)c1cccnc1` the survival enhancement was inactive: -0.3%.
With `O=C(OC1CN2CCC1CC2)c1ccc(Cl)cc1` (stereo not drawn) the survival enhancement was inactive: 0%.
With `CN(C(=O)Cc1ccc(Cl)c(Cl)c1)[C@H]1CC[C@@]2(CCCO2)C[C@@H]1N1CCCC1` the survival enhancement was inactive: -1.2%.
With `O=[N+]([O-])c1ccc2c(c1)nnn2O` the survival enhancement was inactive: 6.7%.
In the case of `CN(C)C(=O)c1cc([N+](=O)[O-])cc2c1-c1c(cc([N+](=O)[O-])cc1[N+](=O)[O-])C2=O`, the survival enhancement was inactive: 1.4%.
With `CCOP1(=S)c2c(C)nn(CCC#N)c2N=C(c2ccc(F)cc2)N1C` (stereo not drawn) the survival enhancement was inactive: -0.4%.
For `CN(C(=O)Cc1ccccc1)[C@@H]1CC[C@]2(CCCO2)C[C@H]1N1CCCC1`, the survival enhancement was inactive: -0.7%.
In the case of `N#CCCN(C(=O)COC(=O)C(O)(c1ccccc1)c1ccccc1)c1ccc(F)cc1`, the survival enhancement was inactive: 1.1%.
For `NC(=O)Nc1ccc([As](=O)(O)O)cc1`, the survival enhancement was inactive: 3.3%.
For `O=C(O)COc1ccc([As](=O)(O)O)cc1[N+](=O)[O-]`, the survival enhancement was inactive: -0.6%.
In the case of `Nc1ccccc1[As](=O)(O)c1ccccc1`, the survival enhancement was inactive: -0.6%.
In the case of `CS(=O)(=O)c1cc([N+](=O)[O-])c2no[n+]([O-])c2c1`, the survival enhancement was inactive: -0.5%.
For `O=P(Nc1nccs1)(Oc1ccccc1)Oc1ccccc1`, the survival enhancement was inactive: -0.3%.
For `O=P(Nc1nccs1)(c1ccccc1)c1nc2ccccc2s1` (stereo not drawn), the survival enhancement was inactive: -1%.
With `CCOP1(=S)c2c(C)nn(CCC#N)c2N=C(c2ccccc2F)N1C` (stereo not drawn) the survival enhancement was inactive: -2.4%.
With `Cc1ccc(OCC(=O)OC2CN3CCC2CC3)cc1` (stereo not drawn) the survival enhancement was inactive: 1.2%.
With `O=[As](O)(c1cccs1)c1cccs1` the survival enhancement was inactive: -0.3%.
With `NS(=O)(=O)c1cccc(NC(=O)COC(=O)C(O)(c2ccccc2)c2ccccc2)c1` the survival enhancement was inactive: 6.2%.
For `O=P1(Nc2ccc(Br)cn2)COc2ccccc2OC1`, the survival enhancement was inactive: 0.2%.
In the case of `Nc1cccc([As](=O)(O)c2ccccc2)c1`, the survival enhancement was inactive: 0.1%.
For `O=P1(Nc2ncccn2)COc2ccccc2OC1`, the survival enhancement was inactive: -2.3%.
With `Cc1ccc(S(=O)(=O)N(CCCN)CCCc2c(C)nc(N)[nH]c2=O)cc1` the survival enhancement was inactive: 0.9%.
With `CCCC1OP(=O)(Nc2ccccc2)OCC1CC` (stereo not drawn) the survival enhancement was inactive: 1.8%.
In the case of `O=C(/C=C/c1ccccc1)OC1CN2CCC1CC2` (stereo not drawn), the survival enhancement was inactive: -0.6%.
With `Cc1ccc(C(=O)OC2CN3CCC2CC3)cc1` (stereo not drawn) the survival enhancement was inactive: 0.3%.
In the case of `CC1CCC(C(C)C)C(OP(=O)(Nc2ccccn2)c2ccccc2)C1` (stereo not drawn), the survival enhancement was inactive: -0.6%.
For `Cc1nn(-c2ccccc2)c2c1P(=O)(N1CCOCC1)N(C)C(c1ccccc1)=N2` (stereo not drawn), the survival enhancement was inactive: 0.6%.
In the case of `CC1(CBr)Cn2c(nc3ccccc3c2=O)S1` (stereo not drawn), the survival enhancement was inactive: -0.8%.
With `CN(C(=O)Cc1ccc(Cl)c(Cl)c1)[C@@H]1CCCC[C@H]1N1CCCC1` the survival enhancement was inactive: -0.6%.
In the case of `CC(C)/C=N\N=C(\N)N[N+](=O)[O-]`, the survival enhancement was inactive: -0.5%.
With `COc1ccccc1CNC(=O)COC(=O)C(O)(c1ccccc1)c1ccccc1` the survival enhancement was inactive: -0.5%.
In the case of `CC(C)(C)C(=O)NC(Sc1ncccn1)C(Cl)(Cl)Cl` (stereo not drawn), the survival enhancement was inactive: 0.1%.
For `Clc1n[nH]nc1-c1nn[nH][15n]1`, the survival enhancement was inactive: -1.4%.
With `O=P1(N(CCCl)CCCl)NCCC(C(F)(F)F)O1` (stereo not drawn) the survival enhancement was inactive: 4.3%.
In the case of `CCOP(=O)(Nc1ccc(C)cn1)OCC`, the survival enhancement was inactive: 0.8%.
For `CN(CCCl)Cc1cc(Cl)c(NC2=NCCN2)c(Cl)c1`, the survival enhancement was inactive: -1.1%.
For `CCOP(=O)(NC(=NC(C)c1ccccc1)NC(C)c1ccccc1)OCC` (stereo not drawn), the survival enhancement was inactive: -0.1%.
In the case of `CCC1=CC2Cc3nc4ccc(Cl)cc4c(N)c3C(C1)C2` (stereo not drawn), the survival enhancement was inactive: -0.4%.
In the case of `O=P1(Nc2ccccn2)COc2ccccc2OC1`, the survival enhancement was inactive: 5.1%.
In the case of `c1nnnn1CCn1cnnn1`, the survival enhancement was inactive: -3%.
For `O=P(Nc1nccs1)(c1ccccc1)c1ccccc1`, the survival enhancement was inactive: 0.5%.
With `CC(C)C(=O)NC(Sc1ccccc1)C(Cl)(Cl)Cl` (stereo not drawn) the survival enhancement was inactive: -0.7%.
For `C(Cc1nn[nH]n1)Cc1nn[nH]n1`, the survival enhancement was inactive: 0%.
For `Nc1ccc([As](=O)(O)c2ccc([N+](=O)[O-])cc2)cc1`, the survival enhancement was inactive: 2.3%.
With `O=C(OC1CN2CCC1CC2)c1cccc(Cl)c1` (stereo not drawn) the survival enhancement was inactive: 2.7%.
With `CC(=O)NC(SC(=S)N(C)C)C(Cl)(Cl)Cl` (stereo not drawn) the survival enhancement was inactive: 0.8%.
With `O=[N+]([O-])c1ncn(CCn2cnc([N+](=O)[O-])n2)n1` the survival enhancement was inactive: -0.6%.
In the case of `O=[N+]([O-])c1ccc(O)c(/C=N/Nc2ccc([N+](=O)[O-])cc2[N+](=O)[O-])c1`, the survival enhancement was inactive: -0.7%.
In the case of `O=[As](O)(c1ccccc1)c1ccc(O)cc1`, the survival enhancement was inactive: -0.1%.
In the case of `C[C@H]1OP(=O)(Oc2ccccc2)[C@H](O)[C@H](O)[C@H]1N=[N+]=[N-]` (stereo partly drawn), the survival enhancement was inactive: 11.9%.
With `O=P(Nc1nc2ccccc2s1)(c1ccccc1)c1ccccc1` the survival enhancement was inactive: -0.2%.
With `COc1ccc(N)c([N+](=O)[O-])c1[N+](=O)[O-]` the survival enhancement was inactive: -0.4%.
For `Nc1ccc(CCCCOc2ccccc2)cc1`, the survival enhancement was inactive: -0.2%.
With `O=P(Nc1ccccn1)(c1ccc(Br)cc1)c1ccc(Br)cc1` the survival enhancement was inactive: -2.5%.
With `O=c1c2cc([N+](=O)[O-])ccc2[nH]c2c([N+](=O)[O-])cc([N+](=O)[O-])cc12` the survival enhancement was inactive: -2.6%.
